Targets include HLA A3101 (Homo sapiens, UniProt P04439, A270S/D185E/E176V/E277Q/F33T/G231S/G80R/H175R/I121M/I218V/I322F/K168Q/L300P/L318F/M331R/P217A/Q94H/R138Q/T323A/T345S/T97I/V358M); HLA A3301 (Homo sapiens, UniProt P04439, A270S/D185E/E176V/E277Q/E87N/F33T/G231S/H175R/I121M/I218V/I322F/K168Q/K210R/L300P/L318F/M331R/P217A/Q86R/Q94H/R138Q/T323A/T345S/T97I/V358M/Y195H); HLA A6801 (Homo sapiens, UniProt P04439, A269V/D185E/E176V/E277Q/E87N/F33Y/G231S/I121M/I166T/I218V/L180W/L300P/L318F/N151K/P208A/P217A/Q86R/R169H/T345S).

Common to all, as to test: HLA class I competition binding assay using soluble HLA
A further assay addresses T1, HLA A0301 (Homo sapiens, UniProt P04439).
T1 construct: endogenous in cells

Consider `CSCC[C@H](NC(=O)[C@H](CC(C)C)NC(=O)[C@H](CCSC)NC(=O)[C@@H](NC(=O)[C@@H](N)CCSC)C(C)C)C(=O)N[C@@H](CC(C)C)C(=O)N[C@H](C(=O)N[C@@H](CCCNC(=N)N)C(=O)N[C@@H](Cc1ccccc1)C(=O)N[C@@H](CCCCN)C(=O)O)C(C)C` [compound 55], for which the half-maximal inhibitory concentration (IC50) was found to be 53 nM on HLA A3101, 10 nM on HLA A0301, 20 nM on HLA A3301 and 10 nM on HLA A6801.
